5 molecules from patent US20200255529A1 (PIONYR IMMUNOTHERAPEUTICS, published 2020) can be followed below.

Amino acid sequences for entries named in this document (tags omitted). Residues count along the entry.
UniProt Q9NP99, 21-234 limits assumed: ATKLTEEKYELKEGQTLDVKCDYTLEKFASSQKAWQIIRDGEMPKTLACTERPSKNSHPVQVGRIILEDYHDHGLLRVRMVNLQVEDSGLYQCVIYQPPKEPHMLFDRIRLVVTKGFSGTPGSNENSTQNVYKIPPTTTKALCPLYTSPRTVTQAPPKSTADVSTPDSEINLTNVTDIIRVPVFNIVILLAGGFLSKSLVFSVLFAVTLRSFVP
UniProt Q9NP99, 21-205 limits assumed, stated change not applied: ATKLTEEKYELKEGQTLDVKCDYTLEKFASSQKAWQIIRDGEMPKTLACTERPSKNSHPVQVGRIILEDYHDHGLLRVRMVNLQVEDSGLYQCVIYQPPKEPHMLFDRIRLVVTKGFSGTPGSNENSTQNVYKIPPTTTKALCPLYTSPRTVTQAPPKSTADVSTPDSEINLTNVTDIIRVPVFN

Test [1] concerns the target T1, human TREM1 on cells (human, UniProt Q9NP99 21-234).
T1 construct: Used for over-expressing cell lines and for primary human monocytes and neutrophils; also called hTREM1; human TREM1 over-expressing HEK293 or expi293 cells
Description: flow cytometry on human peripheral blood monocytes, experiment 1. A general note: Flow cytometry measures light scatter and fluorescence of single cells or particles in a stream.

For test [2], the target named is T1, human TREM1 on cells. Description: flow cytometry on HEK293 cells over-expressing human TREM1, experiment 1. How it is done: (§1) An Alexa 647-conjugated anti-human Fcγ secondary antibody (Jackson Immunoresearch) diluted at 1:500 was used to detect bound primary antibody. The secondary antibody was incubated with the cells for 30 mins on ice. […] Fluorescence signal from bound antibody was assessed by flow cytometry (ThermoFisher Attune NxT). EC50 values were calculated in Prism Software (Graphpad).

Test [3] concerns the target T2, Human chimeric TREM1-mIgG Fc (human, UniProt Q9NP99 21-205, limits assumed).
T2 construct: also called human TREM1-mIgG Fc; not shown: mouse IgG Fc
Description: SPR (Biacore T200), avid format: human TREM1-mIgG Fc captured, antibody as analyte.

Test [4] addresses T1, human TREM1 on cells. The test is described as follows: cell-based or functional assay.
Test [5] has as its target T1, human TREM1 on cells. The test is described as follows: flow cytometry on human peripheral blood monocytes.
For test [6], the target named is T1, human TREM1 on cells. Description: flow cytometry on human peripheral blood monocytes, experiment 2.
Test [7] deals with T1, human TREM1 on cells. The test is described as follows: flow cytometry on human peripheral blood monocytes, experiment 3.
In test [8] the target is T3, His tagged-human TREM1 (human, UniProt Q9NP99 21-205, limits assumed).
T3 construct: also called monomeric human TREM1; not shown: His tag
The test is described as follows: SPR (Biacore T200), monomeric format: antibody captured, His-tagged human TREM1 as analyte.

For test [9], the target named is T1, human TREM1 on cells. Description: flow cytometry on HEK293 cells over-expressing human TREM1, experiment 2. As to the method: as §1
Test [10] addresses T3, His tagged-human TREM1. The test is described as follows: SPR (Biacore T200), monomeric format: antibody captured, His-tagged human TREM1 as analyte. The source holds these as a separate data set. On the technique in general: In SPR one partner is held on a chip, and binding of the other changes the refractive index at the surface.
Test [11] concerns the target T2, Human chimeric TREM1-mIgG Fc. The test is described as follows: SPR (Biacore T200), avid format: human TREM1-mIgG Fc captured, antibody as analyte. This is another data set of the same source.
In test [12] the target is T1, human TREM1 on cells. The test is described as follows: flow cytometry on HEK293 cells over-expressing human TREM1, experiment 3. As to the method:
as §1

Test [13] concerns the target T1, human TREM1 on cells. The test is described as follows: flow cytometry on human peripheral blood monocytes. This is another data set of the same source.
Test [14] addresses T1, human TREM1 on cells. Description: flow cytometry on HEK293 cells over-expressing human TREM1, Alexa 647 anti-human Fcγ secondary antibody. How it is done:
as §1

In test [15] the target is T3, His tagged-human TREM1. The test is described as follows: SPR (Biacore T200), monomeric format: antibody captured, His-tagged human TREM1 as analyte. The source holds these as a separate data set.
For test [16], the target named is T1, human TREM1 on cells. The test is described as follows: flow cytometry on human neutrophils.
For test [17], the target named is T3, His tagged-human TREM1. Description: SPR (Biacore T200), monomeric format: antibody captured, His-tagged human TREM1 as analyte. As to the method: All data were collected at 25° C. 10 mM HEPES pH 7.4, 150 mM NaCl, 3 mM EDTA, 0.05% (v/V) surfactant P20 was used as mobile buffer and for all dilution of mAbs. […] BIAevaluation software was used to perform the kinetic evaluation. Kinetic evaluation was through generation of sensorgrams which were fitted with a 1:1 Langmuir binding model.
This is another data set of the same source.

In test [18] the target is T2, Human chimeric TREM1-mIgG Fc. The test is described as follows: SPR (Biacore T200), avid format: human TREM1-mIgG Fc captured, antibody as analyte. This is another data set of the same source.
Test [19] shares this target. The test is described as above. As to the method:
All data were collected at 25° C. 10 mM HEPES pH 7.4, 150 mM NaCl, 3 mM EDTA, 0.05% (v/V) surfactant P20 was used as mobile buffer and for all dilution of mAbs. Anti-mouse Fc was immobilized on a CM4 biosensor chip (GE Healthcare) using amine coupling chemistry. […] After each cycle, the surface was regenerated by injecting a glycine HCl buffer (10 mM, pH 2.0). BIAevaluation software was used to perform the kinetic evaluation. Kinetic evaluation was through generation of sensorgrams which were fitted with a 1:1 Langmuir binding model.
This is another data set of the same source.

Test [20] addresses T1, human TREM1 on cells. Description: receptor occupancy by flow cytometry on human neutrophils, 24 hr; loss of signal of conjugated anti-TREM1 clone TREM26 (competitor).
Test [21] concerns the target T1, human TREM1 on cells. Description: receptor occupancy by flow cytometry on human monocytes, 24 hr; loss of signal of conjugated anti-TREM1 clone TREM26 (competitor).

Like-named read-outs stand apart in the source and are kept apart here. Some results are limits rather than exact numbers.

B1: PI64052 (afucosylated PI-4026-5-M100L) (antibody, human IgG1, kappa)
heavy: not shown
light: DIQLTQSPSSLSASVGDRVTITCSASSSVSYMHWYQQKPGKAPKLLLYTTSNLASGVPSRFSGSGSGTDYTLTISSLQPEDFATYYCHQWSGYPTFGQGTKLEIKRTVAAPSVFIFPPSDEQLKSGTASVVCLLNNFYPREAKVQWKVDNALQSGNSQESVTEQDSKDSTYSLSSTLTLSKADYEKHKVYACEVTHQGLSSPVTKSFNRGEC
modifications: afucosylated Fc glycan (made in FUT8-deficient expi293 cells)
As usually defined, the EC50 is the concentration at which the effect is half-maximal. A higher EC50 goes with weaker potency. In general, Kd refers to the equilibrium constant for the complex coming apart. High values mean weaker binding, low ones tighter binding. For the molecule B1, the EC50 with human TREM1 on cells [1] was 0.75 nM; in the test with human TREM1 on cells [2] it was 3.26 nM; with human TREM1 on cells [5] it was 0.75 nM; with human TREM1 on cells [6], 1.4 nM; in the test with human TREM1 on cells [7], 0.73 nM; with human TREM1 on cells [9], 3.97 nM. The same molecule had an EC50 in the test with human TREM1 on cells [12] of 5.34 nM. The Kd in test [3] was 0.15 nM; with His tagged-human TREM1 [8], 4.34 nM; with His tagged-human TREM1 [10] it was 4.34 nM; in [11], 0.15 nM. The “ADCP by primary human macrophages, EC50 (nM), donor 1” value with human TREM1 on cells [4] was 6.86 nM. Moreover, the “ADCP by primary human macrophages, EC50 (nM), donor 2” value in the test with human TREM1 on cells [4] worked out at 0.86 nM.

B2: PI-4026-5 (antibody, human IgG1, kappa)
heavy: not shown
light: B1 light
notes: fucosylated form made in expi293 cells
The EC50 (read off the curve) is the midpoint of the concentration-response curve. Lower therefore signals higher potency in that assay. B2: the figures for the EC50 with human TREM1 on cells [13] and with human TREM1 on cells [16] were 0.3 nM and 0.21 nM, respectively. For the same molecule, in the test with human TREM1 on cells [14], the concentration giving a half-maximal response (EC50 (read off the curve)) was roughly 0.2 µg/mL. The Kd in the test with His tagged-human TREM1 [15] was 4.81 nM; with His tagged-human TREM1 [17], 2.01 nM; in [18], 0.68 nM; in test [19], less than 0.1 nM.

B3: PI-4026-5-M100Q (fucosylated) (antibody, human IgG1, kappa)
heavy: not shown
light: B1 light
notes: hIgG1, fucosylated; also called fucosylated parent of PI64062
The term IC50 denotes the concentration that gives 50% inhibition. B3 came in with an EC50 with human TREM1 on cells [13] of 0.65 nM. Also, the Kd with His tagged-human TREM1 [15] stood at 5.61 nM; in test [18], 0.37 nM. Besides, the IC50 with human TREM1 on cells [20] worked out at 0.13 nM; in the test with human TREM1 on cells [21] it was 0.05 nM.

B4: PI64062 (afucosylated PI-4026-5-M100Q) (antibody, human IgG1, kappa)
heavy: not shown
light: B1 light
modifications: afucosylated Fc glycan (made in FUT8-deficient expi293 cells)
In the case of B4, the EC50 with human TREM1 on cells [1] was 1.32 nM; with human TREM1 on cells [2] it was 2.32 nM; in the test with human TREM1 on cells [5], 1.32 nM; with human TREM1 on cells [6] it was 1.27 nM; with human TREM1 on cells [7], 0.57 nM; with human TREM1 on cells [9] it was 3.88 nM. In the test with human TREM1 on cells [12], this molecule had a concentration giving a half-maximal response (EC50) of 4.88 nM. Further, the Kd amounted to 0.39 nM in test [3], 6.32 nM with His tagged-human TREM1 [8], 6.32 nM with His tagged-human TREM1 [10] and 0.39 nM in test [11]. Further, the “ADCP by primary human macrophages, EC50 (nM), donor 1” value with human TREM1 on cells [4] is 8.69 nM. Moreover, the “ADCP by primary human macrophages, EC50 (nM), donor 2” value with human TREM1 on cells [4] turned out to be 0.96 nM. Also, the IC50 with human TREM1 on cells [20] was 0.09 nM; with human TREM1 on cells [21], 0.06 nM.

B5: afucosylated PI-4026-5-M100I (antibody, human IgG1, kappa)
heavy: not shown
light: B1 light
modifications: afucosylated Fc glycan (made in FUT8-deficient expi293 cells)
In the case of B5, the Kd was determined as 0.88 nM in test [3] and 10.1 nM in the test with His tagged-human TREM1 [8]. In addition, in the test with human TREM1 on cells [5], the EC50 worked out at 1.06 nM.
